In patent US9345742B2, “Aminostatin derivatives for the treatment of arthrosis” (MERCK PATENT GMBH, priority 2011, dated 2016) one finds IC50 data, which are given here for three compounds.

The chains behind the UniProt entries cited, without tags or fusion partners. Residues count along the entry.
UniProt P07339, 65-161: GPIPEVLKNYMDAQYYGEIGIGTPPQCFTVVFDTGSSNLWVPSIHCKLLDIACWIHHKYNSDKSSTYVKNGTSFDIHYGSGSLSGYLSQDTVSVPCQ
UniProt P07339, 169-412: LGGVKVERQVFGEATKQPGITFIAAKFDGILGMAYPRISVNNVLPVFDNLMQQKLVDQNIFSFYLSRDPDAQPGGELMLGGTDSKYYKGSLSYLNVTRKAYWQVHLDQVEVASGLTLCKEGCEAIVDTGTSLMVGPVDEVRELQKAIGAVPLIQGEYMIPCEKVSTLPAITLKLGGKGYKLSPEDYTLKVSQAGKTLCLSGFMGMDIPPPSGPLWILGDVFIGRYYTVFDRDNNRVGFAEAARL

The assay concerns the target cathepsin D isolated from the human liver (Homo sapiens (Human), UniProt P07339). Briefly: In-vitro fluorescence assay for identification of cathepsin D inhibitors. The class given is biochemical. Conditions: cathepsin D 1.4 nM, pH 5.5; read-out: CatD assay IC50-. On the procedure: In order to identify modulators of cathepsin D activity, a continuous enzymatic test was carried out with a synthetic peptide which carries a fluorescent group (MCA=(7-methoxycoumarin-4-yl)acetyl) which is quenched by energy transfer from a Dpn (2,4 dinitrophenyl) group on the same molecule, in Greiner 384-well nb microtitre plates. Cleavage of the peptidic substrate by cathepsin D causes an increase in the fluorescence intensity. In order to determine the efficacy of substances, the time-dependent increase in the fluorescence intensity in the presence of the substance was compared with the time-dependent increase in fluorescence in the absence of substances. The reference substance used was pepstatin A (Sigma-Aldrich). The substrate used was MCAGKPILFFRLK(Dnp)d-R—NH2 (Enzo Life Sciences, Lörrach). The enzyme employed was cathepsin D isolated from the human liver (Sigma-Aldrich) in a final concentration of 1.4 nM. The test was carried out in 100 mM sodium acetate buffer, 1.25% (v/v) of DMSO, 0.25% (w/v) of Chaps, pH 5.5. 2 μl of each substance solution with serially diluted substance concentration were added to in each case 4 μl of cathepsin D solution and incubated at room temperature for 10 min. The reaction was started by addition of 2 μl of substrate solution (final concentration 5 μM). After carrying out a starting-point fluorescence measurement (excitation wavelength 340 nm/emission wavelength 450 nm) using an Envision multilabel reader (Perkin Elmer), the reaction was incubated at room temperature for 60 min. The amount of peptide fragment cleaved off during the reaction time was subsequently measured by determination of the increase in the fluorescence intensity at 450 nm (excitation wavelength 340 nm).
The IC50 is the point on the concentration scale where inhibition reaches its midpoint. On to `CC[C@H](C)[C@H](NC(=O)C[C@H](N)[C@H](Cc1ccccc1)NC(=O)[C@@H](NC(=O)[C@H](Cc1ccccc1)NC(=O)CC(C)C)C(C)C)C(=O)N[C@H](C(=O)OC)C(C)C` [Compound 19, Methyl (S)-2-[(2S,3S)-2-((3S,4S)-3-amino-4-{(S)-3-methyl-2-[(S)-2-(3-methylbutyrylamino)-3-phenylpropionylamino]butyrylamino}-5-phenylpentanoylamino)-3-methyl-pentanoylamino]-3-methylbutyrate], for which the IC50 was determined as 3.9 nM.
For `CC[C@H](C)[C@H](NC(=O)C[C@H](N)[C@H](Cc1ccccc1)NC(=O)[C@@H](NC(=O)[C@H](CC(C)C)NC(=O)CC(C)C)C(C)C)C(=O)NCCc1ccccc1` [Compound 24, N-((1S,2S)-2-Methyl-1-phenethyl-carbamoylbutyl)-(S)-3-amino-4-{(S)-(S)-3-methyl-2-[(S)-4-methyl-2-(3-methylbutyryl-amino)pentanoylamino]butyrylamino}-5-phenylpentanamide], the IC50 is 240 nM.
Then `CC[C@H](C)[C@H](NC(=O)C[C@H](N)[C@H](Cc1ccccc1)NC(=O)[C@@H](NC(=O)[C@H](Cc1ccccc1)NC(=O)CC(C)C)C(C)C)C(=O)N[C@H](C(=O)O)C(C)C` [Compound 33, (S)-2-[(2S,3S)-2-((3S,4S)-3-Amino-4-{(S)-3-methyl-2-[(S)-2-(3-methylbutyrylamino)-3-phenylpropionylamino]-1-oxobutyl-amino}-5-phenylpentanoylamino)-3-methylpentanoylamino]-3-methyl-butyric acid], with 4.1 nM.
